## Ab-14 light chain CDR variants: yeast mating affinities

From the AlphaSeq antibody data of Li et al. 2023 (doi:10.1038/s41467-023-39022-2), copy in the FLAb collection.

All variants were tested on one target, the spike HR2 peptide PDVDLGDISGINAS (SARS-CoV-2).

Parent scFv Ab-14: VH joined to VL by a (GGGGS)3 linker. Changes lie in the light chain CDRs alone.
VH: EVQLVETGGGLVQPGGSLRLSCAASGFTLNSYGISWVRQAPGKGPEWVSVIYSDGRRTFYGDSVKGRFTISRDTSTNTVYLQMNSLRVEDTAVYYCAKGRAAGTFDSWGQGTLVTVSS
VL: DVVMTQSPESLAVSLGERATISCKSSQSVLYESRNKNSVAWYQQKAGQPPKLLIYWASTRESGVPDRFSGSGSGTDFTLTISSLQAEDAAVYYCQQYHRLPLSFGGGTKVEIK

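The parent was found by panning a naive human phage display library on the peptide. Designed CDR sequences, proposed from the first random library and measured here. Several design methods are mixed in this list. Affinity was read by AlphaSeq, a pooled yeast mating assay with surface-displayed partners. Binding brings cells together so that they mate, and sequencing counts the barcode pairs among the diploids. Scores were corrected for input abundance and mapped to Kd with protein pairs of known affinity run in the same pool. There are six technical replicates.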

The parent's light chain CDRs are KSSQSVLYESRNKNSVA, WASTRES, QQYHRLPLS; each variant's own CDRs replace them letter for letter.
Affinities are written as log10 Kd with Kd in nM; a lower number is a better binder.
A mean of the replicates is given; it leaves out those without a signal.
An entry "nd" has no value in the source: the pair was not observed among the diploids in any replicate. This suggests poor binding but is not conclusive.
The list is sorted by this average, lowest first, undetected variants last.
As a blank, each scFv also met three strains without target: over all light chain designs, 4% of these pairings were detected, typically at 2.64 and seldom below 1.59.

Result -0.25 (6 of 6 replicates), variant KLYYSDGGLQRNKNSVA, EASTREM, QQYHRLPLS.
Result -0.15 (6 of 6 replicates), variant KVSQSVLGEQRAQNSVA, EASTRES, QQYHRLPLS.
Result -0.15 (6 of 6 replicates), variant HSSPSVLYEDRNKNSVA, NASTRES, QQYHRLPLQ.
Result -0.13 (6 of 6 replicates), variant KLSGSFLYESRNKNSVA, EASTRES, QQYHRLPLS.
Result -0.09 (6 of 6 replicates), variant KLQQQWLYESRNKNSVA, NASTRES, QQYHRLPLS.
Result -0.08 (6 of 6 replicates), variant KAQQSNLYEDRNQNSVA, NASQRLS, QQYHRLPLS.
Result -0.06 (6 of 6 replicates), variant KITQLVMETSKNKNNVA, EVSTLPD, QQYHRLPLS.
Result -0.04 (6 of 6 replicates), variant KVEQSVMMGSRNKNSVA, NASQREQ, QQYHRLPLS.
Result 0.07 (6 of 6 replicates), variant KLQQSELYESRNCNSVA, NASQRES, QQYHRLPLS.
Result 0.12 (6 of 6 replicates), variant KISQMVKVGITHSNSIA, EMVTRAN, QQYHRLPLA.
Result 0.14 (6 of 6 replicates), variant KVEMSVPYEQRNKNSVA, HASVRES, QQYHRLPLS.
Result 0.21 (6 of 6 replicates), variant HQSPSVLYESRNKNSVA, NGSTREQ, QQYHRLPLS.
Result 0.21 (6 of 6 replicates), variant KSSQSELYESRWKNSVA, GASQRES, QQYHRLPLS.
Result 0.23 (6 of 6 replicates), variant KSSQSVLGEQGNKNSVA, DISTRES, QQYHRLPLS.
Result 0.32 (6 of 6 replicates), variant KSSSSYLYGSRNTNSVA, EASTRES, QQYHRLPLS.
Result 0.33 (6 of 6 replicates), variant QIYQAMHTLSQMKDNVA, DVNERGM, QQYFRLPLS.
Result 0.45 (6 of 6 replicates), variant KFSQWVLYESRTKNSVA, NASTRES, QQYHRLPLS.
Result 0.63 (6 of 6 replicates), variant KLSMTHGMETKNRNSVA, ELVTRMS, QQYNRLPLS.
Result 0.78 (6 of 6 replicates), variant HISANMWMQGSQWDAVA, QGDIANN, QQYARLPLS.
Result 0.78 (6 of 6 replicates), variant HVEHASLLSNATMNSVA, NGACLAD, QQYFRLPLA.
Result 0.78 (6 of 6 replicates), variant KMFQSWGMEQRNVNSVA, HASQRLD, QQYHRLPLS.
Result 0.86 (6 of 6 replicates), variant KSSQSVLYESNNKNSVA, SAITREI, QQYHRLPLS.
Result 0.97 (6 of 6 replicates), variant TISQMTSWMSNKKNNVA, EVTTREA, QQYDRLPLT.
Result 0.98 (6 of 6 replicates), variant FSSQSWLMEQRNDNSVA, SASTRED, QQYHRLPLS.
Result 1.14 (6 of 6 replicates), variant VLSDTIENMASEADNIA, DTTETSG, QQYYRLPLS.
Result 1.21 (5 of 6 replicates), variant KSSQSVLYNSENKNSVA, WASTRES, QQYMRLPLS.
Result 1.21 (6 of 6 replicates), variant KSRQSWTYEDRNKNSVA, WASTRES, QQYHRLPLS.
Result 1.36 (6 of 6 replicates), variant HVSESVLSQSKMKNSVA, ENSTRES, QQYDRLPLS.
Result 1.51 (5 of 6 replicates), variant KQSMSVMMGSRNKNSVA, SAHKRES, QQYHRLPLS.
Result 1.71 (6 of 6 replicates), variant KLTHLTFVLDRQKYSIA, DSERKAE, QQYNRLPLT.
Result 1.89 (4 of 6 replicates), variant TLMNLMGGQDEMKNSIA, NHEIGVR, QQYAHLPLV.
Result 2.09 (5 of 6 replicates), variant KSSSSVLYESLNQNSVA, WASTRES, QQYHRLPAS.
Result 2.31 (2 of 6 replicates), variant ILSQMMLMAGNKHSSVA, QANNRND, QQYHRLPLS.
Result 2.50 (5 of 6 replicates), variant KLSDYVGGESRNKSSLA, DNSTRES, QQYHRLPLS.
Result 2.51 (2 of 6 replicates), variant TISQSFLMENQFKNSVA, QAQTRES, QCYDRLPLS.
Result nd (0 of 6 replicates), variant KSSQSKLYESRNKNSVA, WASTREQ, QQYHRLRLY.
Result nd (0 of 6 replicates), variant KLSQGTYGLTQIDSNVA, HDEMRWQ, QQYDKLPLI.
Result nd (0 of 6 replicates), variant MISQILNMGSFAINSVA, QASIRCN, QQYDRLPLM.

6 of these entries, quoted again:

CDR-L1	CDR-L2	CDR-L3	mean, log10 nM	detected
TISQSFLMENQFKNSVA	QAQTRES	QCYDRLPLS	2.51	2/6
KSSSSVLYESLNQNSVA	WASTRES	QQYHRLPAS	2.09	5/6
KLSMTHGMETKNRNSVA	ELVTRMS	QQYNRLPLS	0.63	6/6
TLMNLMGGQDEMKNSIA	NHEIGVR	QQYAHLPLV	1.89	4/6
KLSQGTYGLTQIDSNVA	HDEMRWQ	QQYDKLPLI	nd	0/6
HISANMWMQGSQWDAVA	QGDIANN	QQYARLPLS	0.78	6/6

The authors' rule: three or more of the six replicates give a measured affinity, fewer mean a poor binder.
The parent sequence was in this pool as ten entries: three were never detected, three once, and four in most replicates, with averages from 0.34 to 2.37.
A sequence measured in both rounds can read differently, since the two assays cover different ranges.